The source of these data is patent US20230014151A1, “COMBINATION ANTIVIRAL THERAPY FOR MEASLES” (The Trustees of Columbia University in the City of New York, priority 2019, published 2023).

The test system of this assay is MeV wild-type. Description: MeV infection of human motor neurons, wild-type virus. To be noted: 8 days of infection.

SMILES strings stand for the structures.

Turning to `CC[C@H](C)[C@H](NC(=O)[C@H](C)NC(=O)[C@H](CC(N)=O)NC(=O)CNC(=O)[C@H](CC(C)C)NC(=O)[C@H](CC(N)=O)NC(=O)[C@@H](NC(=O)CNC(=O)[C@@H](NC(=O)[C@H](CC(=O)O)NC(=O)[C@H](CC(C)C)NC(=O)[C@H](CCCNC(=N)N)NC(=O)[C@H](CCC(=O)O)NC(=O)[C@H](CC(C)C)NC(=O)[C@H](CO)NC(=O)[C@@H](NC(=O)[C@@H]1CCCN1C(=O)[C@@H]1CCCN1C(C)=O)[C@@H](C)CC)C(C)C)[C@@H](C)O)C(=O)N[C@@H](C)C(=O)N[C@@H](CCCCN)C(=O)N[C@@H](CC(C)C)C(=O)N[C@@H](CCC(=O)O)C(=O)N[C@@H](CC(=O)O)C(=O)N[C@@H](C)C(=O)N[C@@H](CCCCN)C(=O)N[C@@H](CCC(=O)O)C(=O)N[C@@H](CC(C)C)C(=O)N[C@@H](CC(C)C)C(=O)N[C@@H](CCC(=O)O)C(=O)N[C@@H](CO)C(=O)N[C@@H](CO)C(=O)N[C@@H](CC(=O)O)C(=O)N[C@@H](CCC(N)=O)C(=O)N[C@H](C(=O)N[C@@H](CC(C)C)C(=O)N[C@@H](CCCNC(=N)N)C(=O)NCC(=O)N[C@@H](CO)C(=O)NCC(=O)N[C@@H](CO)C(=O)NCC(=O)N[C@@H](CSC1CC(=O)N(CCCC(=O)NCCOCCOCCOCCOCCC(=O)NCCN(CCNC(=O)CCOCCOCCOCCOCCNC(=O)CCCN2C(=O)CC(SC[C@H](NC(=O)CNC(=O)[C@H](CO)NC(=O)CNC(=O)[C@H](CO)NC(=O)CNC(=O)[C@H](CCCNC(=N)N)NC(=O)[C@H](CC(C)C)NC(=O)[C@@H](NC(=O)[C@H](CCC(N)=O)NC(=O)[C@H](CC(=O)O)NC(=O)[C@H](CO)NC(=O)[C@H](CO)NC(=O)[C@H](CCC(=O)O)NC(=O)[C@H](CC(C)C)NC(=O)[C@H](CC(C)C)NC(=O)[C@H](CCC(=O)O)NC(=O)[C@H](CCCCN)NC(=O)[C@H](C)NC(=O)[C@H](CC(=O)O)NC(=O)[C@H](CCC(=O)O)NC(=O)[C@H](CC(C)C)NC(=O)[C@H](CCCCN)NC(=O)[C@H](C)NC(=O)[C@@H](NC(=O)[C@H](C)NC(=O)[C@H](CC(N)=O)NC(=O)CNC(=O)[C@H](CC(C)C)NC(=O)[C@H](CC(N)=O)NC(=O)[C@@H](NC(=O)CNC(=O)[C@@H](NC(=O)[C@H](CC(=O)O)NC(=O)[C@H](CC(C)C)NC(=O)[C@H](CCCNC(=N)N)NC(=O)[C@H](CCC(=O)O)NC(=O)[C@H](CC(C)C)NC(=O)[C@H](CO)NC(=O)[C@@H](NC(=O)[C@@H]3CCCN3C(=O)[C@@H]3CCCN3C(C)=O)[C@@H](C)CC)C(C)C)[C@@H](C)O)[C@@H](C)CC)[C@@H](C)CC)C(=O)O)C2=O)CCO[C@H]2CC[C@@]3(C)C(=CC[C@H]4[C@@H]5CC[C@H]([C@H](C)CCCC(C)C)[C@@]5(C)CC[C@@H]43)C2)C1=O)C(=O)O)[C@@H](C)CC` (some centres unmarked) [[HRC450-485-peg4]2-chol], the “MeV wild-type infection and spread in human motor neurons” value is, setting by setting: (listed as MV HRC4) “block MeV wild-type infection in human motor neurons”; (listed as MeV HRC4) “block the spread of virus in motor neurons”.
